Literature values as cited in patent US20040137514A1, “Use of antibodies against specific mhc-peptide complexes” (priority 2000, published 2004).

System: T cells of RA patients
Conditions: cited from earlier work

CC[C@H](C)[C@H](NC(=O)[C@H](CCCCN)NC(=O)[C@H](CO)NC(=O)[C@H](Cc1ccccc1)NC(=O)[C@H](CCCNC(=N)N)NC(=O)[C@H](CCC(N)=O)NC(=O)[C@@H](N)CO)C(=O)N[C@@H](C)C(=O)N[C@@H](CO)C(=O)N[C@@H](CC(N)=O)C(=O)N[C@H](C(=O)N[C@@H](CCC(N)=O)C(=O)N[C@@H](CO)C(=O)N[C@@H](CCCNC(=N)N)C(=O)O)[C@@H](C)O [HC gp-39^103-116]
recognition by T cells of RA patients: recognized

CC(C)C[C@H](NC(=O)[C@@H](NC(=O)[C@H](Cc1ccccc1)NC(=O)[C@H](CO)NC(=O)[C@H](CCCNC(=N)N)NC(=O)CNC(=O)[C@H](Cc1ccccc1)NC(=O)[C@@H](NC(=O)[C@@H]1CCCN1)[C@@H](C)O)[C@@H](C)O)C(=O)N[C@@H](C)C(=O)N[C@@H](CO)C(=O)N[C@@H](CO)C(=O)N[C@@H](CCC(=O)O)C(=O)O [HC gp-39^259-271]
recognition by T cells of RA patients: recognized
